Screening results deposited in PubChem by Broad Institute.
Sampled rows, rich in hits. Any-hit rate of the full collection: about 2.8%.
MITF act: MITF TRPM1 promoter activation in melanoma cells; 300,000 tested, 0.75% active; SK-MEL-5 TRPM1-promoter luciferase, 24 h; % of positive control, neutral wells = 0; activation, % at 12.5 µM;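 active = mean activation of at least 80% with every replicate also reaching 80%; inconclusive = mean reaches 80% but some replicate falls short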;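 also: 0% = neutral control wells and 100% = parthenolide positive control wells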
esBAF inh: blocks esBAF chromatin remodeling in mouse ES cells. Bmi1-luciferase knock-in reporter, 24 h; 100% = twice the neutral-well signal. AID 602393. 350,000 tested, 2% active. reporter increase, % at 12.5 µM; in the data active = activation above about 40%; inconclusive = no clear call, values can overlap the other calls;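 also: 0% = median of the plate's neutral control wells and 100% = double that signal; a rise in the Bmi1 reporter signal indicates esBAF inhibition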
PglD inh: blocks C. jejuni PglD acetyltransferase activity | 360,000 tested, 0.098% active | inhibition, % at 12.5 µM | purified PglD enzyme, DTNB colorimetric CoA detection; in the data active = inhibition above about 16%, passing the limit was not always enough; inconclusive = no clear call, values can overlap the other calls
miR122 inh: inhibitors of miR-122 in Huh7 cells; AID 602342; 340,000 tested, 0.3% active; Huh7 miR-122 Renilla luciferase sensor, 48 h; neutral wells = 0, positive control = 100; activation (reporter increase), % at 12.5 µM;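 active = mean replicate activation score at least 90 and every replicate individually at or above 90; inconclusive = only one of the two criteria met; inactive = neither criterion met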;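 also: higher luciferase means less miR-122 activity so hits act as miR-122 inhibitors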
Wnt bcat act: activates Wnt/beta-catenin signaling in a reporter cell assay | activator, plate reader | activation, % at 9.35 µM | 300,000 tested, 1.2% active | AID 743398; in the data active = activation above about 30%, passing the limit was not always enough; inconclusive = no clear call, values can overlap the other calls;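 also: 0% = neutral control wells and 100% = positive control wells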
UUG fidelity: modulators of start codon recognition fidelity in yeast; AID 602363; activity score, % at 18.7 µM; S. cerevisiae UUG-firefly luciferase reporter, luminescence/redox ratio; actives 0.13% (n = 350,000);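 active = replicate mean at a twofold rise or more, about +100% in these data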;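 note: firefly luciferase made from a UUG start codon reports start codon fidelity; reporter light over untreated wells divided by growth signal over untreated wells; some hits fall short of that in this replicate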
An asterisk follows results filed as active; [ ] = remark or other dose.

For CCCNC(=O)N1C[C@@H](O)COC[C@@H]2O[C@@H](CC(=O)N[C@H]3CCN(Cc4ccccc4)C3)CC[C@H]21 the results were esBAF inh -5, PglD inh -1, miR122 inh -1[16.7 µM] and UUG fidelity -12.
Screening O=C(NCc1ccco1)c1cccc(F)c1 returned MITF act 2, esBAF inh -1, PglD inh 1, miR122 inh 0 and UUG fidelity -2.
Screening CCOc1ccc(C(=O)Nc2cc(C)on2)cc1 returned MITF act 26, esBAF inh -15, PglD inh 0, miR122 inh -5, Wnt bcat act 0 and UUG fidelity -14.
O=C(Nc1ccon1)c1sc2cc(F)ccc2c1Cl was read as esBAF inh 71*, PglD inh -3, miR122 inh -3 and UUG fidelity 1.
COc1ccc(CCNC(=O)c2sc3cc(C)ccc3c2Cl)cc1 was read as MITF act 13, esBAF inh -1, PglD inh 1, miR122 inh -4 and UUG fidelity -14.
For O=C(NCc1ccco1)c1sc2cc(F)ccc2c1Cl the results were MITF act 72, esBAF inh 53*, PglD inh -3, miR122 inh -9, Wnt bcat act 17 and UUG fidelity -18.
Cc1ccc2c(Cl)c(C(=O)NCCc3ccccc3)sc2c1 was read as MITF act 106*, PglD inh -3, miR122 inh 3 and UUG fidelity -11.
`O=C(NC1=NCCS1)c1sc2cc(F)ccc2c1Cl` gave MITF act 74 and Wnt bcat act 29.
Screening Cc1cc(NC(=O)c2ccc(Cl)cc2)no1 returned MITF act 106*, esBAF inh 24, PglD inh -2, miR122 inh -1, Wnt bcat act 27 and UUG fidelity -13.
Screening CN1C(=O)c2cc(NC(=O)c3cccc(F)c3)ccc2OC[C@@H]2O[C@H](CC(=O)Nc3ccccc3)CC[C@H]21 returned esBAF inh -4, PglD inh 3, miR122 inh -55[16.7 µM] and UUG fidelity -7.
CO[C@H](CN(C)Cc1cc(F)ccc1F)[C@H](C)CN([C@H](C)CO)S(=O)(=O)c1ccc(Cl)cc1 was read as esBAF inh -3 and PglD inh -3.
For Cc1ccc2c(Cl)c(C(=O)Nc3cc(C)on3)sc2c1 the results were MITF act 53, esBAF inh 60*, PglD inh 2, miR122 inh 8, Wnt bcat act 42* and UUG fidelity -21.
Screening CCNC(=O)c1sc2cc(C)ccc2c1Cl returned MITF act 73, esBAF inh 24*, PglD inh -11, Wnt bcat act 10 and UUG fidelity 1.
Screening Cc1ccnc(NC(=O)c2sc3ccccc3c2Cl)c1 returned MITF act -2.
`CC(c1nc2ccccc2[nH]1)N(C(=O)C1=NNC(=O)CC1)c1ccccc1` (stereo not drawn) gave esBAF inh 4, PglD inh -2, miR122 inh 4, Wnt bcat act -1 and UUG fidelity -16.
`Cc1cnc(C(=O)N(c2ccccc2)C(c2ccccc2)c2nc3ccccc3[nH]2)cn1` (stereo not drawn) gave esBAF inh 45*, PglD inh 2, miR122 inh 4, Wnt bcat act -2 and UUG fidelity -11.
Screening CC(=O)Nc1ccc2c(c1)Cc1ccc(Cl)cc1-2 returned MITF act 46, esBAF inh 46*, PglD inh 2, Wnt bcat act 13 and UUG fidelity -11.
Screening Cc1ccc(C2=NN(S(C)(=O)=O)C(c3cccs3)C2)cc1 (stereo not drawn) returned MITF act inconclusive, PglD inh 5, miR122 inh 22 and UUG fidelity -7.
For CS(=O)(=O)N1N=C(c2ccc(Br)cc2)CC1c1cccs1 (stereo not drawn) the results were MITF act 21, esBAF inh 77*, PglD inh 10, miR122 inh 19 and UUG fidelity -6.
For CCc1ccc(C2=NN(S(C)(=O)=O)C(c3cccs3)C2)cc1 (stereo not drawn) the results were esBAF inh 32, PglD inh 10, miR122 inh 15, Wnt bcat act 44* and UUG fidelity -23.
Screening Cc1ccc(NC(=O)CCCNC(=O)c2ccc(Cl)cc2)nc1 returned MITF act 44, esBAF inh 52*, PglD inh -1, miR122 inh -6, Wnt bcat act 7 and UUG fidelity -13.
For Cc1cnc(NC(=O)CCCNC(=O)c2ccc(Cl)cc2)s1 the results were MITF act 38, esBAF inh 42*, PglD inh -2, miR122 inh 10, Wnt bcat act 52* and UUG fidelity -9.
Screening CCc1csc(N2[C@H](CO)[C@H](c3ccccc3)[C@@H]2CNCCOC)n1 returned esBAF inh 2, PglD inh 1, miR122 inh 21[16.7 µM] and UUG fidelity -16.
Screening CN(Cc1nc(-c2ccccc2)no1)C1CCOCC1 returned MITF act 65, esBAF inh 31, PglD inh 6, miR122 inh -2, Wnt bcat act 41* and UUG fidelity -10.
Screening c1ccc(-c2noc(CCC3CCCC3)n2)cc1 returned MITF act 102*, esBAF inh inconclusive, PglD inh 7, miR122 inh -4, Wnt bcat act 6 and UUG fidelity -12.
Screening c1cc(-c2noc(CCC3CCCC3)n2)ccn1 returned MITF act 24, PglD inh 3, miR122 inh -2 and UUG fidelity -22.
`COc1cccc(/C=C(\C#N)c2nc3ccc(C)cc3[nH]2)c1OCC(=O)O` gave MITF act 0, esBAF inh 51*, PglD inh -5, miR122 inh 0, Wnt bcat act 0 and UUG fidelity -17.
For Cc1ccc(N/C=C/C(=O)c2cccs2)cc1C the results were MITF act 3, PglD inh -1, miR122 inh 0, Wnt bcat act 4 and UUG fidelity -65.
Cc1cc(N/C=C/C(=O)c2cccs2)ccc1F was read as MITF act 24, esBAF inh 69*, PglD inh -5, miR122 inh 27, Wnt bcat act 11 and UUG fidelity -33.
For O=C(/C=C/Nc1cccc([N+](=O)[O-])c1)c1cccs1 the results were esBAF inh 73*, PglD inh -11, miR122 inh inconclusive and UUG fidelity -41.
NNC(=O)C(Cc1ccc(O)cc1)N1Cc2ccccc2C1=O (stereo not drawn) was read as MITF act -5, esBAF inh -7, PglD inh -1, miR122 inh -15, Wnt bcat act -2 and UUG fidelity -5.
`COC(=O)C(Cc1ccc(O)cc1)N1Cc2ccccc2C1=O` (stereo not drawn) gave MITF act 91*, esBAF inh inconclusive, PglD inh 5, miR122 inh -10, Wnt bcat act 23 and UUG fidelity -1.

Ordered by formula weight (ascending): 3 of the compounds above
Screening c1cc(-c2noc(CCC3CCCC3)n2)ccn1 returned MITF act 24, PglD inh 3, miR122 inh -2 and UUG fidelity -22.
For Cc1ccc(N/C=C/C(=O)c2cccs2)cc1C the results were MITF act 3, PglD inh -1, miR122 inh 0, Wnt bcat act 4 and UUG fidelity -65.
For Cc1cnc(NC(=O)CCCNC(=O)c2ccc(Cl)cc2)s1 the results were MITF act 38, esBAF inh 42*, PglD inh -2, miR122 inh 10, Wnt bcat act 52* and UUG fidelity -9.
